{"sequences": {"note": "Sequences of proteins named here, by UniProt entry; tags and fusion partners are left off.", "UniProt P25440, whole entry": "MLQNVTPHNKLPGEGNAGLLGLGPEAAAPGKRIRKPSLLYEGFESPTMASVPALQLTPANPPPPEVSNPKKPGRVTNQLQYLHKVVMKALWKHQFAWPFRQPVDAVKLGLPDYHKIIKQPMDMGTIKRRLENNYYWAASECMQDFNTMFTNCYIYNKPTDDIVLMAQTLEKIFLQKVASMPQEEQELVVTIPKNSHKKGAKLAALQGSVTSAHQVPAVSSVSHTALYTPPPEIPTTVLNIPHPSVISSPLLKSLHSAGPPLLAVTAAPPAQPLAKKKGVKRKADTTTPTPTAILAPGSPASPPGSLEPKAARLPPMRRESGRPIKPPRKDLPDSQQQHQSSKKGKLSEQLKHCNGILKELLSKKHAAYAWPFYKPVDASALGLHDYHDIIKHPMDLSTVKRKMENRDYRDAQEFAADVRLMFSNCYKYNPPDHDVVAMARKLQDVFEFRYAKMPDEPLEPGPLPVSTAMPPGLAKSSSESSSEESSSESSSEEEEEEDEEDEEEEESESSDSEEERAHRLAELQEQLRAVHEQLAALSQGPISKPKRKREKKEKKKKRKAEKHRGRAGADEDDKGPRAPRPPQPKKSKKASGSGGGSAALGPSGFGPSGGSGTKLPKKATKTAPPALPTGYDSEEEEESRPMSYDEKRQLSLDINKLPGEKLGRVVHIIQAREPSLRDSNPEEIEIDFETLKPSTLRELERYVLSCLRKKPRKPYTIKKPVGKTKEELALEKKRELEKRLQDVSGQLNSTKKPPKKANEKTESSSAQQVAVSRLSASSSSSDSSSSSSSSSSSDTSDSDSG"}, "source": "ChEMBL document CHEMBL4043066", "about": "“Drug Discovery Targeting Bromodomain-Containing Protein 4” (J Med Chem, 2017)", "molecular_target": "Bromodomain-containing protein 2 (Homo sapiens, UniProt P25440)"}
{"molecule": "Cc1sc2c(c1C)C(c1ccc(Cl)cc1)=N[C@@H](CC(=O)Nc1ccc(O)cc1)c1nnc(C)n1-2", "note": "[BIRABRESIB]", "values": [{"measurement": "IC50", "result": "92 to 112", "unit": "nM"}]}
